# Literature values in PMC8838460, “Expression, Purification, and Comparative Inhibition of Helicobacter pylori Urease by Regio-Selectively Alkylated Benzimidazole 2-Thione Derivatives” (Molecules, 2022).
# Test system: Rat
# Settings: TOPKAT structural similar compounds; ref FMCHA2 -;C190;89; cited from earlier work
smiles,measurement,value
Cc1cccc(NC(=S)N(C)C)c1,"Actual Endpoint (-log C), Rat Oral LD50",1.946 -log C
